Reference: PMC12102759 (Protein Science : A Publication of the Protein Society, 2025)

Amino acid sequences for entries named in this document (tags omitted). Residues count along the entry.
UniProt Q9Y490, 309-401: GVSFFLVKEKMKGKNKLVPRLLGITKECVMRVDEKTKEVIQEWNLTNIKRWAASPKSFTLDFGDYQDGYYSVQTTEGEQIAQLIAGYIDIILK

biological target: TLN1 PTB (Homo sapiens, UniProt Q9Y490); type: binding

Row | Substance | DMS-derived PSSM value, averaged over the two overlapping peptides
1 | TDERSWVYSPLHYS(averaged) E3L (TDLRSWVYSPLHYS) | 0.1424
2 | TDERSWVYSPLHYS(averaged) E3M (TDMRSWVYSPLHYS) | 0.04008
3 | TDERSWVYSPLHYS(averaged) E3N (TDNRSWVYSPLHYS) | 0.07542
4 | TDERSWVYSPLHYS(averaged) E3P (TDPRSWVYSPLHYS) | 0.09251
5 | TDERSWVYSPLHYS(averaged) E3Q (TDQRSWVYSPLHYS) | 0.008672
6 | TDERSWVYSPLHYS(averaged) E3R (TDRRSWVYSPLHYS) | 0.01375
7 | TDERSWVYSPLHYS(averaged) E3S (TDSRSWVYSPLHYS) | 0.04543
8 | TDERSWVYSPLHYS(averaged) E3T (TDTRSWVYSPLHYS) | 0.03892
9 | TDERSWVYSPLHYS(averaged) E3V (TDVRSWVYSPLHYS) | 0.02019
10 | TDERSWVYSPLHYS(averaged) E3W (TDWRSWVYSPLHYS) | 0.151
11 | TDERSWVYSPLHYS(averaged) E3Y (TDYRSWVYSPLHYS) | 0.02384
12 | TDERSWVYSPLHYS(averaged) H12A (TDERSWVYSPLAYS) | 0.03866
13 | TDERSWVYSPLHYS(averaged) H12D (TDERSWVYSPLDYS) | 0.05292
14 | TDERSWVYSPLHYS(averaged) H12E (TDERSWVYSPLEYS) | 0.06074
15 | TDERSWVYSPLHYS(averaged) H12F (TDERSWVYSPLFYS) | 0.02314
16 | TDERSWVYSPLHYS(averaged) H12G (TDERSWVYSPLGYS) | 0.05345
17 | TDERSWVYSPLHYS(averaged) H12H | 0.1119
18 | TDERSWVYSPLHYS(averaged) H12I (TDERSWVYSPLIYS) | 0.01258
19 | TDERSWVYSPLHYS(averaged) H12K (TDERSWVYSPLKYS) | 0.01815
20 | TDERSWVYSPLHYS(averaged) H12L (TDERSWVYSPLLYS) | 0.02664
21 | TDERSWVYSPLHYS(averaged) H12M (TDERSWVYSPLMYS) | 0.1291

Row | Substance | DMS-derived PSSM value, averaged over the two overlapping peptides
22 | TDERSWVYSPLHYS(averaged) H12N (TDERSWVYSPLNYS) | 0.0707
23 | TDERSWVYSPLHYS(averaged) H12P (TDERSWVYSPLPYS) | 0.03454
24 | TDERSWVYSPLHYS(averaged) H12Q (TDERSWVYSPLQYS) | 0.07055
25 | TDERSWVYSPLHYS(averaged) H12R (TDERSWVYSPLRYS) | 0.01665
26 | TDERSWVYSPLHYS(averaged) H12S (TDERSWVYSPLSYS) | 0.03703
27 | TDERSWVYSPLHYS(averaged) H12T (TDERSWVYSPLTYS) | 0.1476
28 | TDERSWVYSPLHYS(averaged) H12V (TDERSWVYSPLVYS) | 0.0733
29 | TDERSWVYSPLHYS(averaged) H12W (TDERSWVYSPLWYS) | 0.008707
30 | TDERSWVYSPLHYS(averaged) H12Y (TDERSWVYSPLYYS) | 0.01354
31 | TDERSWVYSPLHYS(averaged) L11A (TDERSWVYSPAHYS) | 0.02868
32 | TDERSWVYSPLHYS(averaged) L11D (TDERSWVYSPDHYS) | 0
33 | TDERSWVYSPLHYS(averaged) L11E (TDERSWVYSPEHYS) | 0.01176
34 | TDERSWVYSPLHYS(averaged) L11F (TDERSWVYSPFHYS) | 0.03876
35 | TDERSWVYSPLHYS(averaged) L11G (TDERSWVYSPGHYS) | 0.02345
36 | TDERSWVYSPLHYS(averaged) L11H (TDERSWVYSPHHYS) | 0.01184
37 | TDERSWVYSPLHYS(averaged) L11I (TDERSWVYSPIHYS) | 0.1133
38 | TDERSWVYSPLHYS(averaged) L11K (TDERSWVYSPKHYS) | 0.003935
39 | TDERSWVYSPLHYS(averaged) L11L | 0.2428
40 | TDERSWVYSPLHYS(averaged) L11M (TDERSWVYSPMHYS) | 0.07752
41 | TDERSWVYSPLHYS(averaged) L11N (TDERSWVYSPNHYS) | 0.008044
42 | TDERSWVYSPLHYS(averaged) L11P (TDERSWVYSPPHYS) | 0.004815

Row | Substance | DMS-derived PSSM value, averaged over the two overlapping peptides
43 | TDERSWVYSPLHYS(averaged) L11Q (TDERSWVYSPQHYS) | 0.006573
44 | TDERSWVYSPLHYS(averaged) L11R (TDERSWVYSPRHYS) | 0.02234
45 | TDERSWVYSPLHYS(averaged) L11S (TDERSWVYSPSHYS) | 0.02133
46 | TDERSWVYSPLHYS(averaged) L11T (TDERSWVYSPTHYS) | 0.05838
47 | TDERSWVYSPLHYS(averaged) L11V (TDERSWVYSPVHYS) | 0.05342
48 | TDERSWVYSPLHYS(averaged) L11W (TDERSWVYSPWHYS) | 0.2188
49 | TDERSWVYSPLHYS(averaged) L11Y (TDERSWVYSPYHYS) | 0.0542
50 | TDERSWVYSPLHYS(averaged) P10A (TDERSWVYSALHYS) | 0.0945
51 | TDERSWVYSPLHYS(averaged) P10D (TDERSWVYSDLHYS) | 0.01669
52 | TDERSWVYSPLHYS(averaged) P10E (TDERSWVYSELHYS) | 0.01979
53 | TDERSWVYSPLHYS(averaged) P10F (TDERSWVYSFLHYS) | 0.03064
54 | TDERSWVYSPLHYS(averaged) P10G (TDERSWVYSGLHYS) | 0.1174
55 | TDERSWVYSPLHYS(averaged) P10H (TDERSWVYSHLHYS) | 0.04019
56 | TDERSWVYSPLHYS(averaged) P10I (TDERSWVYSILHYS) | 0.03459
57 | TDERSWVYSPLHYS(averaged) P10K (TDERSWVYSKLHYS) | 0.08346
58 | TDERSWVYSPLHYS(averaged) P10L (TDERSWVYSLLHYS) | 0.1503
59 | TDERSWVYSPLHYS(averaged) P10M (TDERSWVYSMLHYS) | 0.02256
60 | TDERSWVYSPLHYS(averaged) P10N (TDERSWVYSNLHYS) | 0.06723
61 | TDERSWVYSPLHYS(averaged) P10P | 0.1035
62 | TDERSWVYSPLHYS(averaged) P10Q (TDERSWVYSQLHYS) | 0.08571
63 | TDERSWVYSPLHYS(averaged) P10R (TDERSWVYSRLHYS) | 0.04206

Row | Substance | DMS-derived PSSM value, averaged over the two overlapping peptides
64 | TDERSWVYSPLHYS(averaged) P10S (TDERSWVYSSLHYS) | 0.01928
65 | TDERSWVYSPLHYS(averaged) P10T (TDERSWVYSTLHYS) | 0.03475
66 | TDERSWVYSPLHYS(averaged) P10V (TDERSWVYSVLHYS) | 0.01558
67 | TDERSWVYSPLHYS(averaged) P10W (TDERSWVYSWLHYS) | 0.01215
68 | TDERSWVYSPLHYS(averaged) P10Y (TDERSWVYSYLHYS) | 0.009631
69 | TDERSWVYSPLHYS(averaged) R4A (TDEASWVYSPLHYS) | 0.1847
70 | TDERSWVYSPLHYS(averaged) R4D (TDEDSWVYSPLHYS) | 0.1366
71 | TDERSWVYSPLHYS(averaged) R4E (TDEESWVYSPLHYS) | 0.01533
72 | TDERSWVYSPLHYS(averaged) R4F (TDEFSWVYSPLHYS) | 0.01214
73 | TDERSWVYSPLHYS(averaged) R4G (TDEGSWVYSPLHYS) | 0.02892
74 | TDERSWVYSPLHYS(averaged) R4H (TDEHSWVYSPLHYS) | 0.01226
75 | TDERSWVYSPLHYS(averaged) R4I (TDEISWVYSPLHYS) | 0.03787
76 | TDERSWVYSPLHYS(averaged) R4K (TDEKSWVYSPLHYS) | 0.006915
77 | TDERSWVYSPLHYS(averaged) R4L (TDELSWVYSPLHYS) | 0.06167
78 | TDERSWVYSPLHYS(averaged) R4M (TDEMSWVYSPLHYS) | 0.01622
79 | TDERSWVYSPLHYS(averaged) R4N (TDENSWVYSPLHYS) | 0.01483
80 | TDERSWVYSPLHYS(averaged) R4P (TDEPSWVYSPLHYS) | 0.01819
81 | TDERSWVYSPLHYS(averaged) R4Q (TDEQSWVYSPLHYS) | 0.03279
82 | TDERSWVYSPLHYS(averaged) R4R | 0.06987
83 | TDERSWVYSPLHYS(averaged) R4S (TDESSWVYSPLHYS) | 0.209
